Values of other authors as cited in publication PMC5437670 (Journal of the American Chemical Society, 2017).

Target: recombinant human GAA (Myozyme), lysosomal α-glucosidase (Homo sapiens, UniProt P10253)
Details: read-out: app IC50 GAA; literature values; cited from earlier work

Q: For OC[C@@H]1[C@@H](O)[C@H](O)[C@@H](O)CN1CCCCCOCC12CC3CC(CC(C3)C1)C2 [AMP-DNM (MZ-21), reference compound], which IC50 is on record?
A: 0.4 µM
